Assay results taken from paper PMC8915830 (Proceedings of the National Academy of Sciences of the …, 2022).

Protein sequences, listed by entry. Tags and fused reporters are not part of them.
UniProt Q92847, whole entry: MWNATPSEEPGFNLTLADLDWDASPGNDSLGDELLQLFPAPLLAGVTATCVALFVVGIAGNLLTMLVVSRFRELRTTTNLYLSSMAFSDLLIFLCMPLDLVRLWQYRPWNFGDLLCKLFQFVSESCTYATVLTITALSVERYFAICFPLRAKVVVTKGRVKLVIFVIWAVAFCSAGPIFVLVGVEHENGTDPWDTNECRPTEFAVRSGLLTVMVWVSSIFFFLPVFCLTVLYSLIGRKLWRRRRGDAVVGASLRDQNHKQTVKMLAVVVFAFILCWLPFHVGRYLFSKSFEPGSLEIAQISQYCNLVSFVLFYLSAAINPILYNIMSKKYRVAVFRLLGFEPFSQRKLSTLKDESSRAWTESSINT

Target: hGHSR1a^WT (growth hormone secretagogue receptor-1a), expressed in HEK293/T cells (human) (UniProt Q92847)
Experiment: radioligand binding

- IC50: 2.5 nM
Substance: full length, human acyl-ghrelin peptide (1-28, amino acids)
